Biological target: T1, histamine-3 receptor (Rattus norvegicus, UniProt Q9QYN8)
T1 construct: from tissue; host or cells: male Sprague-Dawley rat brain cortex membranes
Test: Histamine-3 receptor binding: displacement of (3H)-N-α-methylhistamine from rat cortical membranes
Set-up: species or system male Sprague-Dawley rat
Conditions: (3H)-N-α-methylhistamine (~0.6 nM), 30 minutes at 25 °C, pH 7.7, Cheng-Prusoff equation
Experimental: Briefly, male Sprague-Dawley rat brain cortices were homogenized (1 g tissue/10 mL buffer) in 50 mM Tris-HCl/5 mM EDTA containing protease inhibitor cocktail (Calbiochem) using a polytron set at 20,500 rpm. Homogenates were centrifuged for 20 minutes at 40,000xg. The supernatant was decanted, and pellets were weighed. The pellet was resuspended by polytron homogenization in 40 mL 50 mM Tris-HCI/5 mM EDTA with protease inhibitors and centrifuged for 20 minutes at 40,000xg. […] Test compounds were dissolved in DMSO to provide a 20 mM solution, serially diluted and then added to the incubation mixtures prior to initiating the incubation assay by addition of the membranes. Thioperamide (3 µM) was used to determine nonspecific binding. Binding incubations were conducted for 30 minutes at 25 °C and terminated by addition of 2 mL of ice cold 50 mM Tris-HCl (pH 7.7) and filtration through 0.3% polyethylenimine-soaked Unifilter plates (Packard). These filters were washed 4 additional times with 2 mL of ice-cold 50 mM Tris-HCl and dried for 1 hour. Radioactivity was determined using liquid scintillation counting techniques. Results were analyzed by Hill transformation and Ki values were determined using the Cheng-Prusoff equation.

Amino acid sequences for entries named in this document (tags omitted). A change or cut given only in a name is not applied to a line headed by its entry.
UniProt Q9QYN8: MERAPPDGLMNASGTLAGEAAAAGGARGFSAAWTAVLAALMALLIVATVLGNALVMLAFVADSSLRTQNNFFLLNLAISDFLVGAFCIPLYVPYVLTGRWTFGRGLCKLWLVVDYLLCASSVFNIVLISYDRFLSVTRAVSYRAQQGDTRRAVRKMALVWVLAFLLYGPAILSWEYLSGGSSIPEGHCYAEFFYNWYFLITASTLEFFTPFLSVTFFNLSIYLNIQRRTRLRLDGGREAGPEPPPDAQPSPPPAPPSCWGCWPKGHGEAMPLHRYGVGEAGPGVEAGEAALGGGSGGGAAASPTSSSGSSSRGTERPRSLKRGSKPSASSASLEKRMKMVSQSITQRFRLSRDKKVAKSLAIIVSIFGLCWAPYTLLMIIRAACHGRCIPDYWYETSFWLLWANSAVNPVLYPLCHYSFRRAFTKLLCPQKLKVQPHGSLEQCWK

- Ki: 0.03 µM
SMILES: CN[C@@H]1CCN(CCCOc2ccc(-c3ccc(C#N)cc3)cc2)C1 [Example 110, 4'-{3-[(3R)-3-(methylamino)pyrrolidinyl]propoxy}[1,1'-biphenyl]-4-carbonitrile]
